These are literature values, as cited in paper PMC2675940 (Journal of medicinal chemistry, 2008).

Protein sequences, listed by entry. Tags and fused reporters are not part of them.
UniProt P25103, whole entry: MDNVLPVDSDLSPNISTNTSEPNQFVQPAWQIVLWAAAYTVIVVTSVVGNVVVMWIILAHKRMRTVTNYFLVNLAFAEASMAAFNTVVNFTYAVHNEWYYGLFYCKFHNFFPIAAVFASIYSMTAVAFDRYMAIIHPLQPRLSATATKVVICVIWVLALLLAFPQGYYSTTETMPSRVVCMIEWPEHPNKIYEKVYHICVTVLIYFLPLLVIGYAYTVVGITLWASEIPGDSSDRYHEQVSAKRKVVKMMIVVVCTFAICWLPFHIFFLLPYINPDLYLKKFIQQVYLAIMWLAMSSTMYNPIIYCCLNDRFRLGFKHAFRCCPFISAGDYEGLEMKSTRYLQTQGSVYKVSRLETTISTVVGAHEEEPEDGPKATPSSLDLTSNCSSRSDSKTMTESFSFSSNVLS

This series addresses human NK1 receptor (hNK1) (Homo sapiens, UniProt P25103).

As for `CC(=O)N[C@@H](Cc1c[nH]c2ccccc12)C(=O)OCc1cc(C)cc(C)c1`, the “fold reduced affinity for the human NK1 receptor as compared to 4” value is recorded as 16.
